The target of experiment [1] is T1, human active recombinant Caspase-3 (Homo sapiens, UniProt P42574).
T1 sequence (P42574 29-175 limits assumed): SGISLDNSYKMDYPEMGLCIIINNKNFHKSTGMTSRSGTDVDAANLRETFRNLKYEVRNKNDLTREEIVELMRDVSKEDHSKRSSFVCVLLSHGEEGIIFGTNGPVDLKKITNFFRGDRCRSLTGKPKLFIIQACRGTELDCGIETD
T1 sequence (P42574 176-277 limits assumed): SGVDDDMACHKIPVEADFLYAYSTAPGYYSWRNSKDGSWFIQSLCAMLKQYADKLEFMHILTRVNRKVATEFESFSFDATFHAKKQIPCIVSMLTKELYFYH
The experiment can be described thus: In vitro caspase activity and inhibition assay (IC50), Caspase-3. The experiment is classed as biochemical.

The next experiment has as its target T2, recombinant human Casp3 (Homo sapiens, UniProt P42574).
T2 sequence (P42574 29-175 limits assumed): T1 sequence (P42574 29-175 limits assumed)
T2 sequence (P42574 176-277 limits assumed): T1 sequence (P42574 176-277 limits assumed)
The experiment can be described thus: Enzyme mechanistic studies (Ki, k3, k3/KI), Caspase-3. The experiment is classed as biochemical. The conditions noted are these: reversible competitive inhibitors, Lineweaver-Burk; read-out: Enzyme assays Casp3 Ki. The procedure:
For reversible inhibitors, the mechanisms of inhibition were determined by varying substrate and inhibitor concentrations and using Lineweaver−Burk representations to determine the inhibition constants Ki of competitive inhibitors (Ki = [E][I]/[EI]). For suicide inhibitors, inactivation can be represented by the minimum kinetic scheme (Eq. 2), where E and I are the free forms of enzyme and inhibitor, E * I a kinetic chimera of the Michaelis complex and E − I the covalent complex (inactivated enzyme).2 E+I⇄KIE*I→k3E−I
KI and k3 are the kinetic constants characterizing the inactivation process and the k3/KI ratio is an index of the inhibitory potency. The first-order rate constant, k3, and the apparent dissociation constant, KI, were determined for Caspase-2 and -3 using the progress curve method. Briefly, the enzyme activities were measured continuously for 120 min. To determine the kinetic parameters, progress curves were obtained at several inhibition concentrations using fixed substrate concentration. […] The ratio k3/KI was obtained by fitting the experimental data to the equations (F.U., fluorescence unit):3 F.U.=∫0tvidt+F.U0−vo×e^−π×t/π+F.U.0 4 π=k3×[I]^′/KI+[I]^′ 5 [I]^′=[I]/1+S/KM […]

This is an account of results in PMC9666555, “Genuine selective caspase-2 inhibition with new irreversible small peptidomimetics” (Cell Death & Disease, 2022).

Consider `CC(=O)N[C@@H](CC(=O)O)C(=O)N[C@@H](CCC(=O)O)C(=O)N[C@H](C(=O)N[C@H](C=O)CC(=O)O)C(C)C` [DEVD-CHO, Ac-DEVD-CHO], for which the IC50 (commonly the point on the concentration scale where inhibition reaches its midpoint) in experiment [1] is 1 nM. On recombinant human Casp3, the Ki – broadly, a measure of affinity in units of concentration, obtained from inhibition or displacement – was 0.2 nM.
